What was measured:
[1] = target: Delta-type opioid receptor (Mus musculus, UniProt P32300); assay: Agonist activity at delta opioid receptor in mouse vas deferens assessed as inhibition of electrically stimulated muscle contraction
Mu-type opioid receptor = Mu-type opioid receptor (Cavia porcellus, UniProt P97266); conditions: Ileum

Protein sequences, listed by entry. Tags and fused reporters are not part of them.
UniProt P32300, whole entry, looked up: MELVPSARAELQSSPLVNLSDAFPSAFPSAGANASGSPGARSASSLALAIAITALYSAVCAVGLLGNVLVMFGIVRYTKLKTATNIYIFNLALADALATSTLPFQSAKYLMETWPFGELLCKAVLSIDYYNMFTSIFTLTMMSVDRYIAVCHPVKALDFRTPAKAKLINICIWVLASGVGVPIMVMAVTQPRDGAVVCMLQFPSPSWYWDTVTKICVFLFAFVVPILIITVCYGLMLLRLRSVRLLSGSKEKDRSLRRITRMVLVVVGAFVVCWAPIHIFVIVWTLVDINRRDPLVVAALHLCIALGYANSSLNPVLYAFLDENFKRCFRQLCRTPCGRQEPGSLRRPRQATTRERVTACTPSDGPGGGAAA
UniProt P97266, whole entry, looked up: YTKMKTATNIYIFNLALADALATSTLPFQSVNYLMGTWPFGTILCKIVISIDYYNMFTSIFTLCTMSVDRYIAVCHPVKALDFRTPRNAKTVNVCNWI

## C[C@H](NC(=O)[C@H](CC(=O)O)NC(=O)[C@@H](N)Cc1ccc(O)cc1)C(=O)NCC(=O)N[C@@H](Cc1ccccc1)C(N)=O
[1]
  IC50: 0.72 nM
Mu-type opioid receptor
  IC50: 40 nM
